This note sets out measurements from ChEMBL document CHEMBL2203126, “Diazine indole acetic acids as potent, selective, and orally bioavailable antagonists of chemoattractant receptor homologous molecule expressed on Th2 cells (CRTH2) for the treatment of allergic inflammatory diseases” (J Med Chem, 2012).

pIC50: −log10 of the molar value.

One assay relates to Eosinophil. Nature of the assay: cells. The note with it: Homo sapiens, Blood, 10 min.
The target of assay [1] is T1, Prostaglandin D2 receptor 2 (Homo sapiens, UniProt Q9Y5Y4).
T1 sequence (Q9Y5Y4 whole entry): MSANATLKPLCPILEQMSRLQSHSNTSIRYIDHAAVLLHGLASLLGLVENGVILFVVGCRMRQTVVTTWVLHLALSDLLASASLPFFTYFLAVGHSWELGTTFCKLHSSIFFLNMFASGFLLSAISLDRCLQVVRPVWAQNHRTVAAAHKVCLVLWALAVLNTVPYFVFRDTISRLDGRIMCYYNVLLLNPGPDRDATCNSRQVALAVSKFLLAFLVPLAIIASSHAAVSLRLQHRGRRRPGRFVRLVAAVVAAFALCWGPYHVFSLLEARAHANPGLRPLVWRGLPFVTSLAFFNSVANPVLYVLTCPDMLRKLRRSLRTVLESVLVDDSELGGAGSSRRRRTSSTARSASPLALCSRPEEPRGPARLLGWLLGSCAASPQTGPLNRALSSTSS
As to conditions: cho-k1.

`Cc1c(Cc2ccc(=O)n(Cc3ccc(F)cc3F)n2)c2ccccc2n1CC(=O)O`: the negative-log IC50 (pIC50) (in the assay on Eosinophil; in assay [1]) was 7.70 in each case.
